Source: US12728168B2, “Anti-CEA antibody-exatecan analog conjugate and pharmaceutical use thereof” (JIANGSU HENGRUI MEDICINE CO., LTD., priority 2019, dated 2026)
Where two headings read alike, the source gives them in different places.

Assays:
human soluble CEA = target: T1, human soluble CEA (Homo sapiens, UniProt P06731); experiment: Affinity of antibodies for soluble CEA using Biacore; type: binding; settings: 1:1 Langmuir
T1 construct: His6 (C); made in house; host or cells: 293E cells
T1 sequence (P06731 with tags, fused parts or gaps): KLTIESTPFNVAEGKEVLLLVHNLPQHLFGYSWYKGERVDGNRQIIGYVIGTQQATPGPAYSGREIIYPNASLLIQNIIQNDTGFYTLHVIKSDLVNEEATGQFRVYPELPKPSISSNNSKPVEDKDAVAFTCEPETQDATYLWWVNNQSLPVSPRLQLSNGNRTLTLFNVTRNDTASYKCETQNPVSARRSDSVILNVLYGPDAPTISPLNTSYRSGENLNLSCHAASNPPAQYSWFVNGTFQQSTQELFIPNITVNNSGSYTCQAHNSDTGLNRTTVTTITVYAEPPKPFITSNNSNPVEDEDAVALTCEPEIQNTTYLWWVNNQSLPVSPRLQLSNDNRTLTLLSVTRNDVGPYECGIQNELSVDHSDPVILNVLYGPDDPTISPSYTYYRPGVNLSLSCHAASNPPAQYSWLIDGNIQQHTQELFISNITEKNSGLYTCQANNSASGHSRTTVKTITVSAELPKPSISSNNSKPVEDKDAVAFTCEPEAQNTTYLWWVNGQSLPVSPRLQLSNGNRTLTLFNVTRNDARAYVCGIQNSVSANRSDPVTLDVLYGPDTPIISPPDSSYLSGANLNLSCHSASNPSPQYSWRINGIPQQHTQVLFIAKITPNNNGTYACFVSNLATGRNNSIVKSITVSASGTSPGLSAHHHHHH

[1] = target: T2, human CEACAM1 expressed on CHO cell surface (CEACAM1-CHO) (Homo sapiens, UniProt P13688); experiment: FACS binding assay, CEACAM1-CHO cells; settings: Table 17, humanized antibodies and controls
T2 construct: expressed in transfected cells; host or cells: CHO cells
T2 sequence (P13688 35-526): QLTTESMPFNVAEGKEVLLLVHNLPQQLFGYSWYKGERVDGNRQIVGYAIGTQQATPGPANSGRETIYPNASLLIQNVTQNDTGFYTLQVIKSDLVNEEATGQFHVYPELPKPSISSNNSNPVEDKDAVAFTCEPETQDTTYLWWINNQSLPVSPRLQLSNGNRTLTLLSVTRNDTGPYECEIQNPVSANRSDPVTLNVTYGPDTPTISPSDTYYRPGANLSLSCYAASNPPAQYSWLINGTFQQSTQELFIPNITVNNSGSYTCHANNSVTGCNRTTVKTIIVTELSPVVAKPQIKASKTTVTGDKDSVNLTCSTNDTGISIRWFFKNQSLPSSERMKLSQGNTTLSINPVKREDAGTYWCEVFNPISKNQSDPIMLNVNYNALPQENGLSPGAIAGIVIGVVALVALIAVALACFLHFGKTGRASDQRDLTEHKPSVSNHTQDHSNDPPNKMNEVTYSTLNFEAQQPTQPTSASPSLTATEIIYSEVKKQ

[2] = SD rats, intravenous 3 mg/kg, serum ELISA
[3] = test system: HCT116 (without CEA expression); experiment: Cytotoxicity of ADCs, Cell Titer-Glo, HCT116; type: cell-based; settings: 5 days
[4] = test system: MKN45 xenograft tumor model; experiment: In vivo inhibitory activity against tumors, MKN45 xenograft; parameters: species or system BALB/c nude mice; settings: 1 mpk, intraperitoneal, only once, 1 mg/kg
[5] = Monkey plasma, ADC 100 μg/mL, 0 = below lower limit of detection
[6] = Human plasma, ADC 100 μg/mL, 0 = below lower limit of detection
[7] = BSA, ADC 100 μg/mL, 0 = below lower limit of detection

B1: Hu63-13: humanized antibody of mAb63: h63VH5 + h63VL1; heavy chain SEQ ID NO: 80, light chain SEQ ID NO: 81 (antibody)
heavy: EVQLVQSGAEVKKPGASVKVSCKASGYTFTDFYMNWVRQAPGQGLEWMGDIFPKSGNTDYNRKFKDRVTMTRDTSTSTVYMELSSLRSEDTAVYYCARSGYGNYVFDYWGQGTLVTVSSASTKGPSVFPLAPSSKSTSGGTAALGCLVKDYFPEPVTVSWNSGALTSGVHTFPAVLQSSGLYSLSSVVTVPSSSLGTQTYICNVNHKPSNTKVDKKV[left out - human IgG1 Fc]
light: DIQMTQSPSSLSASVGDRVTITCRTSQDINIYLNWYQQKPGKAPKLLIYYRSGLLSGVPSRFSGSGSGTDFTLTISSLQPEDFATYYCQQGNTLPPTFGGGTKVEIKRTVAAPSVFIFPPSDEQLKSGTASVVCLLNNFYPREAKVQWKVDNALQSGNSQESVTEQDSKDSTYSLSSTLTLSKADYEKHKVYACEVTHQGLSSPVTKSFNRGEC
modifications: Synthetic Sequence_Heavy chain sequence of Hu63-13; Synthetic Sequence_Light chain sequence of Hu63-13
In the case of B1, the “ka” value (human soluble CEA) is reported as 29900 M⁻¹ s⁻¹, the “kd” value (human soluble CEA) is reported as 0.00431 s⁻¹ and the “EC50 (nM) CEACAM1-CHO” value [1] is reported as “No binding”.

B2: Hu47-14: humanized antibody of mAb47: h47VH4 + h47VL2; heavy chain SEQ ID NO: 82, light chain SEQ ID NO: 83 (antibody)
heavy: EVQLVQSGSELKKPGASVKVSCKASGYTFTTYGMSWVKQAPGQGLKWMGWINTYSGVPTYASDFKGRFVFSLDTSVSTAYLQISSLKAEDTAVYYCARRGNYGRWDFDVWGQGTTVTVSSASTKGPSVFPLAPSSKSTSGGTAALGCLVKDYFPEPVTVSWNSGALTSGVHTFPAVLQSSGLYSLSSVVTVPSSSLGTQTYICNVNHKPSNTKVDKKV[left out - human IgG1 Fc]
light: EIVLTQSPDFQSVTPKEKVTITCSVSSTISSSNLHWYQQKPDQSPKPLIYGTSNLASGVPSRFSGSGSGTDYTLTINSLEAEDAATYYCQQWSIYPLTFGQGTKLEIKRTVAAPSVFIFPPSDEQLKSGTASVVCLLNNFYPREAKVQWKVDNALQSGNSQESVTEQDSKDSTYSLSSTLTLSKADYEKHKVYACEVTHQGLSSPVTKSFNRGEC
modifications: Synthetic Sequence_Heavy chain sequence of Hu47-14; Synthetic Sequence_Light chain sequence of Hu47-14
In the case of B2, the “ka” value (human soluble CEA) is reported as 131000 M⁻¹ s⁻¹, the “kd” value (human soluble CEA) is reported as 0.188 s⁻¹ and the “EC50 (nM) CEACAM1-CHO” value [1] is reported as “No binding”.

B3: Hu67-14: humanized antibody of mAb67: h67VH3 + h67VL4; heavy chain SEQ ID NO: 84, light chain SEQ ID NO: 85 (antibody)
heavy: EVQLVQSGAEVKKPGESLKISCKGSGYSFTDYHMNWVKQMPGKGLEWMGDINPDIGGTSYNQNFKGKVTISVDKSISTAYLQWSSLKASDTAMYYCARWDFDSFANWGQGTLVTVSSASTKGPSVFPLAPSSKSTSGGTAALGCLVKDYFPEPVTVSWNSGALTSGVHTFPAVLQSSGLYSLSSVVTVPSSSLGTQTYICNVNHKPSNTKVDKKV[left out - human IgG1 Fc]
light: DIQMTQSPSSLSASVGDRVTITCRASESVSIIGTNLIHWYQQKPGKAPKLLIYHASNLETGVPSRFSGSGSGTDFTLTISSLQPEDFATYYCLQSRKIPYTFGGGTKVEIKRTVAAPSVFIFPPSDEQLKSGTASVVCLLNNFYPREAKVQWKVDNALQSGNSQESVTEQDSKDSTYSLSSTLTLSKADYEKHKVYACEVTHQGLSSPVTKSFNRGEC
modifications: Synthetic Sequence_Heavy chain sequence of Hu67-14; Synthetic Sequence_Light chain sequence of Hu67-14
In the case of B3, the “ka” value (human soluble CEA) is reported as 37600 M⁻¹ s⁻¹, the “kd” value (human soluble CEA) is reported as 0.00859 s⁻¹ and the “EC50 (nM) CEACAM1-CHO” value [1] is reported as “No binding”.

B4: Hu103-32-2-A: ADC: humanized anti-CEA antibody Hu103-32 conjugated to linker toxin 2-A; DAR differs by batch (conjugate)
heavy: EVQLVQSGSELKKPGASVKVSCKASGYTFTTYGVIWVRQAPGQGLEWMGWINTYSGVPTYASDFKGRFVFSLDTSVSTAYLQISSLKAEDTAVYYCARKKTLTTVTPWFAYWGQGTLVTVSSASTKGPSVFPLAPSSKSTSGGTAALGCLVKDYFPEPVTVSWNSGALTSGVHTFPAVLQSSGLYSLSSVVTVPSSSLGTQTYICNVNHKPSNTKVDKKV[left out - human IgG1 Fc]
light: ELVLTQSPSASASLGASVKLTCTLSSQHSTYTIEWYQQQPEKGPRYVMELKKDGSHSTGEGIPDRFSGSSSGAERYLTISSLQSEDEADYYCGVGNTIKEQFVYVFGGGTKLTVLGQPKANPTVTLFPPSSEELQANKATLVCLISDFYPGAVTVAWKADGSPVKAGVETTKPSKQSNNKYAASSYLSLTPEQWKSHRSYSCQVTHEGSTVEKTVAPTECS
In the case of B4, the “AUC 0-t” value ([2]; Antibodies) is reported as 3235 µg·h/mL, the “AUC 0-∞” value ([2]; Antibodies) is reported as 3357 µg·h/mL and the “CL” value ([2]; Antibodies) is reported as 21.75 mL/day/kg. For the same molecule, the “Cmax” value ([2]; Antibodies) was 66.35 µg/mL, the “MRT 0-∞” value ([2]; Antibodies) was 160.14 h and the “Vz” value ([2]; Antibodies) was 0.20629 L/kg. For the same molecule, the “t1/2(d)” value ([2]; Antibodies) was 6.58 days, the “t1/2(h)” value ([2]; Antibodies) was 157.87 h and the “AUC 0-t” value ([2]; Intact ADC) was 3609 µg·h/mL. The “AUC 0-∞” value ([2]; Intact ADC) was 3699 µg·h/mL, the “CL” value ([2]; Intact ADC) was 19.70 mL/day/kg and the “Cmax” value ([2]; Intact ADC) was 64.94 µg/mL. The “MRT 0-∞” value ([2]; Intact ADC) was 144.63 h, the “Vz” value ([2]; Intact ADC) was 0.16009 L/kg and the “t1/2(d)” value ([2]; Intact ADC) was 5.63 days. For the same molecule, the “t1/2(h)” value ([2]; Intact ADC) was 135.19 h, the IC50 ([3]; ADC batches of high DAR (6.29-7)) was 78.1 nM and the IC50 ([3]; ADC batches of low DAR (3.97-4.8)) was 83.6 nM. For the same molecule, the “Tumor inhibition rate (%)” value [4] was 11.39%, the “Percentages of toxins in plasma (%)” value ([5]; day 0, 37° C.) was 0% and the “Percentages of toxins in plasma (%)” value ([5]; day 7, 37° C.) was 0.38%. For the same molecule, the “Percentages of toxins in plasma (%)” value ([5]; day 14, 37° C.) was 0.92%, the “Percentages of toxins in plasma (%)” value ([5]; day 21, 37° C.) was 0.96% and the “Percentages of toxins in plasma (%)” value ([6]; day 0, 37° C.) was 0%. For the same molecule, the “Percentages of toxins in plasma (%)” value ([6]; day 7, 37° C.) was 0.93%, the “Percentages of toxins in plasma (%)” value ([6]; day 14, 37° C.) was 0.78% and the “Percentages of toxins in plasma (%)” value ([6]; day 21, 37° C.) was 1.13%. For the same molecule, the “Percentages of toxins in plasma (%)” value ([7]; day 0, 37° C.) was 0%, the “Percentages of toxins in plasma (%)” value ([7]; day 7, 37° C.) was 0% and the “Percentages of toxins in plasma (%)” value ([7]; day 14, 37° C.) was 0%. The “Percentages of toxins in plasma (%)” value ([7]; day 21, 37° C.) was 0%.

B5: Hu103-32: humanized antibody of mAb103: h103VH4 + h103VL8; heavy chain SEQ ID NO: 86, light chain SEQ ID NO: 87 (antibody)
heavy: B4 heavy
light: B4 light
modifications: Synthetic Sequence_Heavy chain sequence of Hu103-32; Synthetic Sequence_Light chain sequence of Hu103-32
With B5 the “ka” value (human soluble CEA) was 33300 M⁻¹ s⁻¹, the “kd” value (human soluble CEA) was 0.00103 s⁻¹ and the “EC50 (nM) CEACAM1-CHO” value [1] was “No binding”.
